{"source": "patent US12622906B2", "about": "“Treatment and prognosis of pancreatic cancer” (Cambridge Enterprise Limited, priority 2019, dated 2026)", "key": {"IGF1 signalling pathway [1]": {"test_system": "IGF1 signalling pathway"}, "PDAC mesenchymal cells": {"test_system": "PDAC mesenchymal cells", "details": "mouse, in vivo"}, "CCR1 expression": {"test_system": "CCR1 expression", "test": "CCR1 expression in PDAC cells after prolonged co-culture with BMDM (qRT-PCR, flow cytometry)", "format": "cell-based, murine"}, "PDAC tumours": {"test_system": "PDAC tumours", "test": "Initial pilot experiments in KPC Band B mice, tumour staining", "format": "in vivo", "details": "10 days, compared with vehicle control"}, "IGF1 signalling pathway [2]": {"test_system": "IGF1 signalling pathway", "remark": "listed apart in the source"}}}
{"compound": "C[C@@H]1CN(Cc2ccc(F)cc2)CCN1C(=O)COc1ccc(Cl)cc1NC(N)=O", "note": "[BX-471, (2R)-1-[[2-[(Aminocarbonyl)amino]-4-chlorophenoxy]acetyl]-4-[(4-fluorophenyl)methyl]-2-methylpiperazine]", "values": [{"measurement": "activation and expression profiles of AKT and 4E-BP1 following recombinant IGF1 treatment", "setting": "IGF1 signalling pathway [1]", "value": "particularly blunted"}, {"measurement": "overall survival", "setting": "PDAC mesenchymal cells", "value": "prolonged overall survival"}, {"measurement": "induction of CCR1 expression due to prolonged co-culture", "setting": "CCR1 expression", "value": "blunting the induction of CCR1 expression"}, {"measurement": "collagen deposition / tumour microenvironment morphology (collagen VI stain)", "setting": "PDAC tumours", "value": "altered morphology of the PDAC tumour microenvironment"}, {"measurement": "upregulation of IGF1 family genes with recombinant IGF1", "setting": "IGF1 signalling pathway [2]", "value": "severely blunted this upregulation"}]}
